Source: patent US20250382264A1, “HETEROCYCLE-CONTAINING AMINO ACID COMPOUND AND COMPLEX” (AICHI STEEL CORPORATION, priority 2022, published 2025)

Tests used:
[1] = Absorbance of aqueous iron complex solution irradiated with ultraviolet rays (253.7 nm); format: physicochemical; conditions: aqueous solution of the Fe complex of the named ligand, Fe 100 μM, pH 5.0, ultraviolet 253.7 nm, 10-mm cell
Experimental: For comparison, absorbance measurement was performed using an aqueous solution of each of an iron complex of ethylenediaminetetraacetic acid (EDTA) (hereinafter, referred to as “Fe-EDTA”), an iron complex of diethylenetriamine-N,N,N',N'',N''-pentaacetic acid (DTPA) (hereinafter, referred to as “Fe-DTPA”), an iron complex of hydroxybenzylethylenediamine (HBED) (hereinafter, referred to as “Fe-HBED”), an iron complex of N,N'-ethylene-bis([…]) (hereinafter, referred to as “Fe-EDDHA”), an iron complex of citric acid, and an iron complex (hereinafter, referred to as “Fe-PDMA”) of a compound represented by the following formula (hereinafter, referred to as “PDMA”). […] Subsequently, a deionized water was added to fill up to 220 mL. This aqueous solution was left to stand at a temperature of 25° C. for 1 hour to yield an aqueous solution of an iron complex having an Fe concentration of 100 μM (5.6 ppm). Thereafter, the absorbance of this aqueous complex solution was measured. […] Subsequently, a deionized water was added to fill up to 220 mL. […] Thereafter, the absorbance of this aqueous complex solution was measured in the same manner as described above (see Table 1). […] Subsequently, about 220 mL of a deionized water was added to the resultant mixture to yield an aqueous complex solution having an Fe concentration of 100 μM (5.6 ppm).

Fe concentration (nutrient solution pH 5.0, 253.7 nm, ultraviolet irradiation time 15 min) [mg/L]	Fe concentration (nutrient solution pH 5.0, 253.7 nm, ultraviolet irradiation time 30 min) [mg/L]	Fe concentration (nutrient solution pH 5.0, 253.7 nm, ultraviolet irradiation time 60 min) [mg/L]	Fe concentration (nutrient solution pH 5.0, 253.7 nm, ultraviolet irradiation time 90 min) [mg/L]	Fe concentration (nutrient solution pH 5.0, Fe 100 μM, ultraviolet irradiation time 0 min) [mg/L]	Absorbance [1]	Substance
4.8	0.6	0	0	4.8		iron complex of diethylenetriamine-N,N,N′,N″,N″-pentaacetic acid [Fe-DTPA]
					1.117	iron complex of N,N′-ethylene-bis(hydroxyphenyl)glycine [Fe-EDDHA]

Like-named read-outs stand apart in the source and are kept apart here.
